Source: ChEMBL document CHEMBL4364301 (Eur J Med Chem, 2019)

Experiments:
Assay type in all cases: functional
LNCaP = test: Antiproliferative activity against human LNCAP cells assessed as reduction in cell growth incubated for 96 hrs by propidium iodide based 2D monolayer assay
Summary of the method: (§1)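 After 24 h recovery, compound in medium or medium alone (control wells) was added at 10 half-log concentrations from 0.0032 to 100 µM, in triplicate, with at most 0.3% DMSO. After 96 h, wells were PBS-washed, stained with 7 µg/ml PI and 0.1% Triton X-100, and fluorescence read at 530/620 nm. IC50 came from a 4-parameter fit, geometric mean.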

VCaP = test: Antiproliferative activity against human VCaP cells assessed as reduction in cell growth incubated for 96 hrs by propidium iodide based 2D monolayer assay
Summary of the method: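 VCaP cells in RPMI 1640 with 10% FCS at 37 °C, 5% CO2, seeded 4,000–20,000 cells/well and left 24 h before dosing. Compounds from DMSO stocks were diluted in half-log steps in medium, 10 concentrations 0.0032–100 μM, triplicate wells, max 0.3% DMSO. After 96 h, cells were washed, stained with 7 μg/ml propidium iodide plus 0.1% Triton X-100 for 1–2 h at room temperature, and fluorescence read at ex 530/em 620 nm.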

CWR22R = test: Antiproliferative activity against human 22Rv1 cells assessed as reduction in cell growth incubated for 96 hrs by propidium iodide based 2D monolayer assay; summary of the method: as §1
DU-145 = test: Antiproliferative activity against human DU145 cells assessed as reduction in cell growth incubated for 96 hrs by propidium iodide based 2D monolayer assay; summary of the method: as §1

Measured: Activity

CC(O)(COc1ccc(C#N)cc1)C(=O)Nc1ccc(C#N)c(C(F)(F)F)c1 (racemic)
active: LNCaP Dose-dependent effect | VCaP Dose-dependent effect | CWR22R Dose-dependent effect | DU-145 = Dose-dependent effect

CC(O)(CSc1cccc(C(F)(F)F)c1)C(=O)Nc1cccc(S(F)(F)(F)(F)F)c1 (racemic)
active: LNCaP Dose-dependent effect | VCaP Dose-dependent effect | CWR22R Dose-dependent effect | DU-145 = Dose-dependent effect

CC(O)(CSc1ccc(S(F)(F)(F)(F)F)cc1)C(=O)Nc1cccc(S(F)(F)(F)(F)F)c1 (racemic)
active: LNCaP Dose-dependent effect | VCaP Dose-dependent effect | CWR22R Dose-dependent effect | DU-145 = Dose-dependent effect

CC(O)(COc1ccc(S(F)(F)(F)(F)F)cc1)C(=O)Nc1ccc(C#N)cc1C(F)(F)F (racemic)
active: LNCaP Dose-dependent effect | VCaP Dose-dependent effect | CWR22R Dose-dependent effect | DU-145 = Dose-dependent effect

CC(O)(CSc1ccc(OC(F)(F)F)cc1)C(=O)Nc1cccc(S(F)(F)(F)(F)F)c1 (racemic)
active: LNCaP Dose-dependent effect | VCaP Dose-dependent effect | CWR22R Dose-dependent effect | DU-145 = Dose-dependent effect

CC(O)(CSc1ccccc1OC(F)(F)F)C(=O)Nc1ccc(S(F)(F)(F)(F)F)cc1 (racemic)
active: LNCaP Dose-dependent effect | VCaP Dose-dependent effect | CWR22R Dose-dependent effect | DU-145 = Dose-dependent effect

CC(O)(CSc1ccc(C(F)(F)F)cc1)C(=O)Nc1cccc(S(F)(F)(F)(F)F)c1 (racemic)
active: LNCaP Dose-dependent effect | VCaP Dose-dependent effect | CWR22R Dose-dependent effect | DU-145 = Dose-dependent effect

CC(O)(CSc1ccccc1OC(F)(F)F)C(=O)Nc1cccc(S(F)(F)(F)(F)F)c1 (racemic)
active: LNCaP Dose-dependent effect | VCaP Dose-dependent effect | CWR22R Dose-dependent effect | DU-145 = Dose-dependent effect

CC(O)(CSc1ccc(C(F)(F)F)cn1)C(=O)Nc1ccc(S(F)(F)(F)(F)F)cc1 (racemic)
active: LNCaP Dose-dependent effect | VCaP Dose-dependent effect | CWR22R Dose-dependent effect | DU-145 = Dose-dependent effect

CC(O)(COc1ccc(S(F)(F)(F)(F)F)cc1)C(=O)Nc1ccc(S(F)(F)(F)(F)F)cc1 (racemic)
active: LNCaP Dose-dependent effect | VCaP Dose-dependent effect | CWR22R Dose-dependent effect | DU-145 = Dose-dependent effect

CC(O)(COc1ccc(S(F)(F)(F)(F)F)cc1)C(=O)Nc1ccc([N+](=O)[O-])c(C(F)(F)F)c1 (racemic)
active: LNCaP Dose-dependent effect | VCaP Dose-dependent effect | CWR22R Dose-dependent effect | DU-145 = Dose-dependent effect

CC(O)(COc1ccc(S(F)(F)(F)(F)F)cc1)C(=O)Nc1ccc([N+](=O)[O-])cc1C(F)(F)F (racemic)
active: LNCaP Dose-dependent effect | VCaP Dose-dependent effect | CWR22R Dose-dependent effect | DU-145 = Dose-dependent effect

CC(O)(COc1cccc(S(F)(F)(F)(F)F)c1)C(=O)Nc1ccc([N+](=O)[O-])c(C(F)(F)F)c1 (racemic)
active: LNCaP Dose-dependent effect | VCaP Dose-dependent effect | CWR22R Dose-dependent effect | DU-145 = Dose-dependent effect

CC(O)(CSc1cccc(OC(F)(F)F)c1)C(=O)Nc1ccc(S(F)(F)(F)(F)F)cc1 (racemic)
active: LNCaP Dose-dependent effect | VCaP Dose-dependent effect | CWR22R Dose-dependent effect | DU-145 = Dose-dependent effect

CC(O)(COc1cccc(S(F)(F)(F)(F)F)c1)C(=O)Nc1ccc([N+](=O)[O-])cc1C(F)(F)F (racemic)
active: LNCaP Dose-dependent effect | VCaP Dose-dependent effect | CWR22R Dose-dependent effect | DU-145 = Dose-dependent effect

CC(O)(COc1ccc(OC(F)(F)F)cc1)C(=O)Nc1ccc(S(F)(F)(F)(F)F)cc1 (racemic)
active: LNCaP Dose-dependent effect | VCaP Dose-dependent effect | CWR22R Dose-dependent effect | DU-145 = Dose-dependent effect

CC(O)(CSc1ccc(OC(F)(F)F)cc1)C(=O)Nc1ccc(S(F)(F)(F)(F)F)cc1 (racemic)
active: LNCaP Dose-dependent effect | VCaP Dose-dependent effect | CWR22R Dose-dependent effect | DU-145 = Dose-dependent effect

CC(O)(COc1ccc(S(F)(F)(F)(F)F)cc1)C(=O)Nc1ccc(C#N)c(C(F)(F)F)c1 (racemic)
active: LNCaP Dose-dependent effect | VCaP Dose-dependent effect | CWR22R Dose-dependent effect | DU-145 = Dose-dependent effect

CC(O)(COc1cccc(S(F)(F)(F)(F)F)c1)C(=O)Nc1ccc(S(F)(F)(F)(F)F)cc1 (racemic)
active: LNCaP Dose-dependent effect | VCaP Dose-dependent effect | CWR22R Dose-dependent effect | DU-145 = Dose-dependent effect

CC(O)(COc1cccc(S(F)(F)(F)(F)F)c1)C(=O)Nc1ccc(C#N)c(C(F)(F)F)c1 (racemic)
active: LNCaP Dose-dependent effect | VCaP Dose-dependent effect | CWR22R Dose-dependent effect | DU-145 = Dose-dependent effect

CC(O)(COc1cccc(C(F)(F)F)c1)C(=O)Nc1ccc(S(F)(F)(F)(F)F)cc1 (racemic)
active: LNCaP Dose-dependent effect | VCaP Dose-dependent effect | CWR22R Dose-dependent effect | DU-145 = Dose-dependent effect

CC(O)(CSc1cccc(OC(F)(F)F)c1)C(=O)Nc1cccc(S(F)(F)(F)(F)F)c1 (racemic)
active: LNCaP Dose-dependent effect | VCaP Dose-dependent effect | CWR22R Dose-dependent effect | DU-145 = Dose-dependent effect

CC(O)(CSc1cc(C(F)(F)F)cc(C(F)(F)F)c1)C(=O)Nc1ccc(S(F)(F)(F)(F)F)cc1 (racemic)
active: LNCaP Dose-dependent effect | VCaP Dose-dependent effect | CWR22R Dose-dependent effect | DU-145 = Dose-dependent effect

CC(O)(CSc1ccccc1C(F)(F)F)C(=O)Nc1cccc(S(F)(F)(F)(F)F)c1 (racemic)
active: LNCaP Dose-dependent effect | VCaP Dose-dependent effect | CWR22R Dose-dependent effect | DU-145 = Dose-dependent effect

CC(O)(CSc1cccc(S(F)(F)(F)(F)F)c1)C(=O)Nc1cccc(S(F)(F)(F)(F)F)c1 (racemic)
active: LNCaP Dose-dependent effect | VCaP Dose-dependent effect | CWR22R Dose-dependent effect | DU-145 = Dose-dependent effect

CC(O)(COc1ccccc1C(F)(F)F)C(=O)Nc1ccc(S(F)(F)(F)(F)F)cc1 (racemic)
active: LNCaP Dose-dependent effect | VCaP Dose-dependent effect | CWR22R Dose-dependent effect | DU-145 = Dose-dependent effect

CC(O)(COc1cccc(S(F)(F)(F)(F)F)c1)C(=O)Nc1ccc(C#N)cc1C(F)(F)F (racemic)
active: LNCaP Dose-dependent effect | VCaP Dose-dependent effect | CWR22R Dose-dependent effect | DU-145 = Dose-dependent effect

CC(O)(CSc1ccc(F)cc1)C(=O)Nc1cccc(S(F)(F)(F)(F)F)c1 (racemic)
active: LNCaP Dose-dependent effect | VCaP Dose-dependent effect | CWR22R Dose-dependent effect | DU-145 = Dose-dependent effect
